Experimental data published in patent publication US10517954B2, “Pegylated carfilzomib compounds” (AMGEN INC., priority 2016, dated 2019).

How the values were obtained:
[1] = PEG-carfilzomib mouse pK (FIG. 2); format: in vivo; conditions: i.v. bolus, female Balb/c mice; control standard carfilzomib formulation 5 mg/kg
Experimental: Mean plasma concentration (μM) following intravenous administration of PEG-carfilzomib conjugate to female Balb/c mice (n=3). Dosage indicated is mg/kg of PEG-carfilzomib conjugate. […] Blood samples were collected at the indicated time points and plasma carfilzomib concentrations were measured in duplicate by LC/MS-MS. […] This standard carfilzomib represents the currently approved formulation for carfilzomib for treatment of multiple myeloma.

[2] = Mean carfilzomib plasma concentration-time profiles, IV (FIG. 4, Table 4); conditions: male Balb/c mice
[3] = carfilzomib in plasma, IV 5 mg/kg (equivalent to carfilzomib)

Substance | carfilzomib plasma profile compared with control carfilzomib (FIG. 2) [1] | AUC0-24 [2, 3] [ng·h/mL] | CL/F [2, 3] [mL/min/kg] | Cmax [2, 3] [ng/mL] | T1/2 [2, 3] [h] | Volume of Distribution (Vdss) [2, 3] [L/kg] | carfilzomib plasma concentration-time profile (FIG. 4) ([2]; i.v. bolus 5 mg/kg (equivalent to carfilzomib)) | time carfilzomib is present in / released into the plasma post administration ([2]; i.v. bolus 5 mg/kg (equivalent to carfilzomib), measured to 24 h)
4-(3-Acetoxy-4-((PEG5K-imino)methyl)benzyl)-4-((4S,7S,10S,13S)-10-benzyl-7-isobutyl-15-methyl-13-((R)-2-methyloxirane-2-carbonyl)-2,5,8,11-tetraoxo-4-phenethyl-3,6,9,12-tetraazahexadecyl)morpholin-4-ium methanesulfonate [Example 18] | profile similar to that of the control carfilzomib | – | – | – | – | – | – | –
4-(4-Acetoxy-3-(1-(PEG5K-imino)ethyl)benzyl)-4-((4S,7S,10S,13S)-10-benzyl-7-isobutyl-15-methyl-13-((R)-2-methyloxirane-2-carbonyl)-2,5,8,11-tetraoxo-4-phenethyl-3,6,9,12-tetraazahexadecyl)morpholin-4-ium methanesulfonate [Example 16] | improved availability of free, active carfilzomib over the same time period as that of the control | – | – | – | – | – | – | –
4-((4S,7S,10S,13S)-10-Benzyl-7-isobutyl-15-methyl-13-((R)-2-methyloxirane-2-carbonyl)-2,5,8,11-tetraoxo-4-phenethyl-3,6,9,12-tetraazahexadecyl)-4-(4-(isobutyryloxy)-3-((PEG5K-imino)methyl)benzyl)morpholin-4-ium methanesulfonate [Example 26] | – | 847 | 96.17 | 472 | 8.51 | 12.8 | higher concentrations | about 25 hours
